Yeast mating assay 1: variants of the scFv Ab-14

Source: Engelhart et al. 2022 (doi:10.1038/s41597-022-01779-4), MIT Lincoln Laboratory and A-Alpha Bio; data file from the FLAb repository.

Target peptide (SARS-CoV-2 spike, HR2 region): PDVDLGDISGINAS

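The parent was found by panning a naive human phage display library on the peptide. In library AAYL49, one, two or three CDR residues were substituted; doubles and triples were drawn at random. The scFvs were displayed on barcoded MATa yeast, the peptide on MATalpha yeast. Mating (16 h, 30 °C) was followed by selection of diploids and sequencing of their barcodes. The ratio of observed to expected reads was calibrated, replicate by replicate, on BCL2-family standards whose Kd was known from biolayer interferometry. Each pool was mated in three replicate cultures.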

Parent: Ab-14, a human scFv built as VH, a 15-residue (Gly4Ser)3 linker, VL. Only the CDRs of the heavy chain vary.
VH: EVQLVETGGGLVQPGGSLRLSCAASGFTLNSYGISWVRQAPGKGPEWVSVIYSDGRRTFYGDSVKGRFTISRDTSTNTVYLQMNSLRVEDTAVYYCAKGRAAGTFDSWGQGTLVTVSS
VL: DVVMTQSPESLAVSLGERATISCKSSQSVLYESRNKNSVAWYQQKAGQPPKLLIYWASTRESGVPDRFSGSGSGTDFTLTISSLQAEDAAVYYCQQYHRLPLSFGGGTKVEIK

The parent's heavy chain CDRs are GFTLNSYGIS, VIYSDGRRTFYGDSVK, GRAAGTFDS; each variant's own CDRs replace them letter for letter. Every variant below is changed at A101 of the VH (sequential numbering). Numbers give log10(Kd / nM), so 0 is 1 nM and 3 is 1 µM. Smaller is tighter. The mean shown is taken over the replicates in which the pair was detected. An entry "nd" has no value in the source: the pair was not observed among the diploids in that replicate. This suggests poor binding but is not conclusive. Order: sorted from the lowest average up, undetected variants last. Three control strains display no target. For library AAYL49, 15% of the pairings with them gave a signal, with a median of 4.06 and one signal in twenty below 2.83, so weak values seen in few replicates may be background. For each scFv, signals with the empty controls are counted beside the result.

Variant GFTPNDYGIS | VIYSDGRRTFYGDSVK | GRVAGTFDS showed 0.41, 0.50, 0.43 (mean 0.44; controls 1 of 9). Variant GFTIDSYGIS | VIYSDGRRTFYGDSVK | GREAGTFDS gave 0.73, 0.44, 0.66 (mean 0.61; controls 0 of 9). Variant GFTLNSYGIS | VIYSDGYRTFTGDSVK | GRVAGTFDS gave 0.99, 1.02, 1.09 (mean 1.03; controls 1 of 9). For GFTLNSYGIN | VIYSDGRRTFYGDSVK | GRSAMTFDS, the assay gave 1.06, 1.05, 1.19 (mean 1.10; controls 0 of 9). With GFTLNSYGIS | VIYSDGTRTFYGDSVK | GCHAGTFDS the result was 1.12, 1.29, 1.25 (mean 1.22; controls 1 of 9). With GFTLNSYGIS | VIYSDGRRTFYAYSVK | GRNAGTFDS the result was 1.46, 1.24, 1.60 (mean 1.43; controls 1 of 9). For GFTLNSYGIS | VIYSDGRRTFYGDSVK | GRCAGTFDS, the assay gave 1.51, 1.50, 1.40 (mean 1.47; controls 2 of 9).

For GKTLNSYGIS | VIYSDGRRTFYGDSVL | GRYAGTFDS, the assay gave nd, 1.33, 1.68 (mean 1.51; controls 0 of 9). Variant GFTLNSYGIS | VIYHDGRRTFYGDSVK | GRHAGTFDS gave 1.45, 2.16, 1.70 (mean 1.77; controls 2 of 9). Variant GFTLNSYGIS | VIYSDGRRTFFGDSVK | GREAGTFES gave 1.95, 1.73, 2.23 (mean 1.97; controls 1 of 9). Variant GFTLNSYGIS | VIYSDGIRTFYGDSVK | GRYAGTFES showed 2.88, 1.64, 1.59 (mean 2.04; controls 1 of 9). Variant WFTLNSYGIS | VIYSDGMRTFYGDSVK | GRQAGTFDS showed 1.98, 1.84, 3.01 (mean 2.27; controls 0 of 9). Variant GFTLNSYGIS | VIYSDGRRTFYGDSVQ | GRKAGTFDS showed 2.83, 2.42, 3.32 (mean 2.86; controls 0 of 9). Variant GFTLNSYGNS | VIYSDGRRTFYGPSVK | GRSAGTFDS showed nd, 3.75, nd (controls 1 of 9).

For GKTPNSYGIS | VIYSDGRRTFYGDSVK | GRWAGTFDS, the assay gave 4.58, 3.11, nd (mean 3.84; controls 0 of 9). With GFTYNSYGIS | VIYSDGRRTIYGDSVK | GRRAGTFDS the result was nd, 3.88, nd (controls 1 of 9). Variant GFTLNSYGIS | VIYSDGRWTFYGDSVK | GRIAGTFIS showed nd, nd, 3.92 (controls 5 of 9). Variant GFTLNSYGIS | VIYSDGRRDFLGDSVK | GRRAGTFDS gave nd, 3.39, 4.67 (mean 4.03; controls 2 of 9). Variant GFTLQSYGIS | VIYSDGRRTFYGDSVK | GRPAGTFMS showed nd, 4.17, nd (controls 1 of 9). For GFTMNLYGIS | VIYSDGRRTFYGDSVK | GRFAGTFDS, the assay gave nd, nd, 4.24 (controls 7 of 9). Variant GETLNSYGIS | VIYSFGRRTFYGDSVK | GRCAGTFDS gave 4.28, 4.23, nd (mean 4.26; controls 2 of 9).

Variant IFTLNSYGIS | VKYSDGRRTFYGDSVK | GRVAGTFDS gave 3.91, nd, 4.98 (mean 4.45; controls 4 of 9). For GFTLNSYGIS | VIYCDGRRTFYGDSVK | GRIATTFDS, the assay gave nd, nd, 4.52 (controls 0 of 9). For GWTLNSYGIS | VIYSDGRRTFYGDSVK | GRKAGTFDS, the assay gave 4.77, 4.34, nd (mean 4.56; controls 6 of 9). With GFTLNSYGIS | VIYSDGYRTFYGDSVK | GRYHGTFDS the result was 4.81, 4.41, 4.57 (mean 4.60; controls 6 of 9). Variant GFTLNSYGRL | VIYSDGRRTFYGDSVK | GRQAGTFDS gave 4.76, nd, nd (controls 3 of 9). With GFTLNSYGIS | VIYSKGRRTFYGDSVK | GRSAGTFDS the result was nd, nd, 4.89 (controls 0 of 9). Variant GFTSNSYCIS | VIYSDGRRTFYGDSVK | GRCAGTFDS showed 5.00, 4.45, 5.34 (mean 4.93; controls 5 of 9).

Variant GFTLNQYGIS | VIYSDGRRTFYGDSRK | GRQAGTFDS showed nd, nd, nd (controls 0 of 9). With GFTLNSYKIS | VIYSDGRRTFYGDSVK | GMRAGTFDS the result was nd, nd, nd (controls 0 of 9). Variant MFTLNSYGIS | VIYSQGRRTFYGDSVK | GRHAGTFDS showed nd, nd, nd (controls 1 of 9). Variant GFTLNSYGIS | VIYSPGRRTFYGDSVK | GRLAGTFDS showed nd, nd, nd (controls 1 of 9). Variant GFTLNSYGIS | VIYSDGRRTFHGDSVK | ERVAGTFDS showed nd, nd, nd (controls 0 of 9). For GFTLNSYGIS | VIYSDGRRTFYGDSVK | GRMASTFVS, the assay gave nd, nd, nd (controls 0 of 9). Variant GFTLNSYGIV | VIYSDGRRTGYGDSVK | GRRAGTFDS showed nd, nd, nd (controls 0 of 9).

For GFTLNSYGIS | VIYSDGRRNFYGDSVK | GRPAGTFDS, the assay gave nd, nd, nd (controls 0 of 9). Variant GFTLNSYGIS | VIYSIGRRTFYGDSVK | GRVAQTFDS showed nd, nd, nd (controls 0 of 9). With GVTLNSYGIS | VIYSDGRRTFYGDIVK | GRMAGTFDS the result was nd, nd, nd (controls 0 of 9). Variant GFTLNSYGIS | VIYVDGRRTFYGDSVK | GRQAGTFIS showed nd, nd, nd (controls 1 of 9). For GFTLNSYGRS | VIYSDGRRTFYGDSVK | GRTAGTFLS, the assay gave nd, nd, nd (controls 0 of 9). For GFTLNSYCIS | VIYSDGRRTFYGDSVK | GRRAGTFDL, the assay gave nd, nd, nd (controls 3 of 9). Variant GFTLNHYGIS | VIYSDGRRTFYGDSVK | GRTAGTFDS gave nd, nd, nd (controls 1 of 9).

With GFTLNSYGIS | VIYSDIRRTFYADSVK | GRQAGTFDS the result was nd, nd, nd (controls 3 of 9). With GFTLNSYGIS | VIYSMGRRTFYGGSVK | GRQAGTFDS the result was nd, nd, nd (controls 1 of 9). Variant GFTLNSYYIS | VIYSQGRRTFYGDSVK | GRVAGTFDS showed nd, nd, nd (controls 1 of 9). With GFTLNSYGIL | VIYSDGRNTFYGDSVK | GRWAGTFDS the result was nd, nd, nd (controls 3 of 9).

Repeated from above, the 7 best binders with a signal in all replicates:

{"CDR-H1": "GFTPNDYGIS", "CDR-H2": "VIYSDGRRTFYGDSVK", "CDR-H3": "GRVAGTFDS", "log10 Kd (nM) by replicate": "0.41, 0.50, 0.43", "mean, log10 nM": "0.44", "signal with controls": "1 of 9"}
{"CDR-H1": "GFTIDSYGIS", "CDR-H2": "VIYSDGRRTFYGDSVK", "CDR-H3": "GREAGTFDS", "log10 Kd (nM) by replicate": "0.73, 0.44, 0.66", "mean, log10 nM": "0.61", "signal with controls": "0 of 9"}
{"CDR-H1": "GFTLNSYGIS", "CDR-H2": "VIYSDGYRTFTGDSVK", "CDR-H3": "GRVAGTFDS", "log10 Kd (nM) by replicate": "0.99, 1.02, 1.09", "mean, log10 nM": "1.03", "signal with controls": "1 of 9"}
{"CDR-H1": "GFTLNSYGIN", "CDR-H2": "VIYSDGRRTFYGDSVK", "CDR-H3": "GRSAMTFDS", "log10 Kd (nM) by replicate": "1.06, 1.05, 1.19", "mean, log10 nM": "1.10", "signal with controls": "0 of 9"}
{"CDR-H1": "GFTLNSYGIS", "CDR-H2": "VIYSDGTRTFYGDSVK", "CDR-H3": "GCHAGTFDS", "log10 Kd (nM) by replicate": "1.12, 1.29, 1.25", "mean, log10 nM": "1.22", "signal with controls": "1 of 9"}
{"CDR-H1": "GFTLNSYGIS", "CDR-H2": "VIYSDGRRTFYAYSVK", "CDR-H3": "GRNAGTFDS", "log10 Kd (nM) by replicate": "1.46, 1.24, 1.60", "mean, log10 nM": "1.43", "signal with controls": "1 of 9"}
{"CDR-H1": "GFTLNSYGIS", "CDR-H2": "VIYSDGRRTFYGDSVK", "CDR-H3": "GRCAGTFDS", "log10 Kd (nM) by replicate": "1.51, 1.50, 1.40", "mean, log10 nM": "1.47", "signal with controls": "2 of 9"}